Reference: patent publication US8362026B2, “Crystalline form of 2-chloro-5-[3,6-dihydro-3-methyl-2,6-dioxo-4-(trifluoromethyl)-1-(2H)-pyrimidinyl]-4-fluoro-N-[[methyl(1-methyl-ethyl)amino]sulfonyl]benzamide” (BASF SE, priority 2006, dated 2013)
Where two headings read alike, the source gives them in different places.

Legend:
Hordeum vulgare = settings: useful plant Hordeum vulgare, scale 0-100
Source text: (§1) The seeds of the test plants were sown separately for each species.
(§2) The test period extended over 2 to 4 weeks.

Euphorbia heterophylla = settings: harmful plant Euphorbia heterophylla, pre-emergence, aqueous SC, scale 0-100
Source text: as §1, §2

Pharbitis purpurea = settings: harmful plant Pharbitis purpurea; pre-emergence; 6.25 g/ha a.s.; aqueous SC; scale 0-100
Source text: as §1, §2

Chenopodium album = settings: harmful plant Chenopodium album; post-emergence + 1 l/ha Rustica Öl; 15 g/ha a.s.; scale 0-100
Source text: as §1, §2

Sinapis arvensis = settings: harmful plant Sinapis arvensis; post-emergence; 10 g/ha a.s.; scale 0-100
Source text: as §1, §2

Stellaria media = settings: harmful plant Stellaria media, scale 0-100
Source text: as §1, §2

Mercurialis annua = settings: harmful plant Mercurialis annua; pre-emergence; 6.25 g/ha a.s.; aqueous SC; scale 0-100
Source text: as §1, §2

[1] = tested on: Salsola kali ssp. ruthenica; settings: harmful plant Salsola kali ssp. ruthenica; post-emergence; 20 g/ha a.s.; scale 0-100
Source text: as §1, §2

Triticum aestivum = settings: useful plant Triticum aestivum; post-emergence + 1 l/ha Rustica Öl; 20 g/ha a.s.; scale 0-100
Source text: as §1, §2

Matricaria inodora = settings: harmful plant Matricaria inodora; post-emergence + 1 l/ha Rustica Öl; 5 g/ha a.s.; scale 0-100
Source text: as §1, §2

Sida spinosa = settings: harmful plant Sida spinosa; pre-emergence; 12.5 g/ha a.s.; aqueous SC; scale 0-100
Source text: as §1, §2

Kochia scoparia = settings: harmful plant Kochia scoparia; post-emergence; 20 g/ha a.s.; scale 0-100
Source text: as §1, §2

Secale cereale = settings: useful plant Secale cereale, post-emergence + 1 l/ha Rustica Öl, scale 0-100
Source text: as §1, §2

Galium aparine = settings: harmful plant Galium aparine; post-emergence + 1 l/ha Rustica Öl; 15 g/ha a.s.; scale 0-100
Source text: as §1, §2

Capsella bursa-pastoris = settings: harmful plant Capsella bursa-pastoris; post-emergence + 1 l/ha Rustica Öl; 15 g/ha a.s.; scale 0-100
Source text: as §1, §2

Veronica persicaria = settings: harmful plant Veronica persicaria; post-emergence; 15 g/ha a.s.; scale 0-100
Source text: as §1, §2

Ambrosia elatior = settings: harmful plant Ambrosia elatior; pre-emergence; 12.5 g/ha a.s.; aqueous SC; scale 0-100
Source text: as §1, §2

Glycine max = settings: useful plant Glycine max, pre-emergence, aqueous SC 100 g/l, scale 0-100
Source text: as §1, §2

Papaver rhoeas = settings: harmful plant Papaver rhoeas; post-emergence; 20 g/ha a.s.; scale 0-100
Source text: as §1, §2

Polygonum convolvulus = settings: harmful plant Polygonum convolvulus, scale 0-100
Source text: as §1, §2

Helianthus annuus = settings: harmful plant Helianthus annuus; pre-emergence; 12.5 g/ha a.s.; aqueous SC; scale 0-100
Source text: as §1, §2

Lamium purpureum = settings: harmful plant Lamium purpureum; post-emergence + 1 l/ha Rustica Öl; 10 g/ha a.s.; scale 0-100
Source text: as §1, §2

Thlaspi arvense = settings: harmful plant Thlaspi arvense; post-emergence; 10 g/ha a.s.; scale 0-100
Source text: as §1, §2

Viola arvensis = settings: harmful plant Viola arvensis; post-emergence + 1 l/ha Rustica Öl; 5 g/ha a.s.; scale 0-100
Source text: as §1, §2

Thiaspi arvense = settings: harmful plant Thiaspi arvense; post-emergence + 1 l/ha Rustica Öl; 5 g/ha a.s.; scale 0-100
Source text: as §1, §2

test plants = settings: greenhouse tests, pre- and post-emergence, summary of Tables 4-6
Source text: as §1, §2

[2] = post-emergence + 1 l/ha Rustica Öl, 15 g/ha a.s.
[3] = post-emergence + 1 l/ha Rustica Öl, 20 g/ha a.s.
[4] = post-emergence + 1 l/ha Rustica Öl, 5 g/ha a.s.
[5] = pre-emergence, 12.5 g/ha a.s., aqueous SC
[6] = pre-emergence, 25 g/ha a.s., aqueous SC

| Structure (SMILES) | Damage [%] (Hordeum vulgare; [2]) | Damage [%] (Hordeum vulgare; [3]) | Damage [%] (Hordeum vulgare; post-emergence, 15 g/ha a.s.) | Damage [%] (Hordeum vulgare; post-emergence, 20 g/ha a.s.) | Damage [%] (Euphorbia heterophylla; 6.25 g/ha a.s.) | Damage [%] (Euphorbia heterophylla; 12.5 g/ha a.s.) | Damage [%] (Pharbitis purpurea) | Damage [%] (Chenopodium album) | Damage [%] (Sinapis arvensis) | Damage [%] (Stellaria media; [4]) | Damage [%] (Stellaria media; [5]) | Damage [%] (Stellaria media; [6]) | Damage [%] (Mercurialis annua) | Damage [%] [1] [%] | Damage [%] (Triticum aestivum) | Damage [%] (Matricaria inodora) | Damage [%] (Sida spinosa) | Damage [%] (Kochia scoparia) | Damage [%] (Secale cereale; 10 g/ha a.s.) | Damage [%] (Secale cereale; 15 g/ha a.s.) | also measured |
| --- | --- | --- | --- | --- | --- | --- | --- | --- | --- | --- | --- | --- | --- | --- | --- | --- | --- | --- | --- | --- | --- |
| CC(C)N(C)S(=O)(=O)NC(=O)c1cc(-n2c(=O)cc(C(F)(F)F)n(C)c2=O)c(F)cc1Cl (single isomer, unassigned) [Form I, 2-chloro-5-[3,6-dihydro-3-methyl-2,6-dioxo-4-(trifluoromethyl)-1-(2H)-pyrimidinyl]-4-fluoro-N-[[methyl(1-methylethyl)amino]sulfonyl]benzamide, reference compound] | 15 | 20 | 5 | 5 | 40 | 95 | 70 | 70 | 50 | 50 | 65 | 75 | 40 | 80 | 15 | 65 | 90 | 45 | 10 | 10 | Damage [%] (Secale cereale; 20 g/ha a.s.): 15%; Damage [%] (Galium aparine): 75%; Damage [%] (Capsella bursa-pastoris): 80%; Damage [%] (Veronica persicaria): 40%; Damage [%] (Ambrosia elatior): 60%; Damage [%] (Glycine max; 12.5 g/ha a.s.): 30%; Damage [%] (Glycine max; 25 g/ha a.s.): 70%; Damage [%] (Papaver rhoeas): 20%; Damage [%] (Polygonum convolvulus; [2]): 70%; Damage [%] (Polygonum convolvulus; post-emergence, 20 g/ha a.s.): 40%; Damage [%] (Helianthus annuus): 70%; Damage [%] (Lamium purpureum): 60%; Damage [%] (Thlaspi arvense): 30%; Damage [%] (Viola arvensis): 40%; Damage [%] (Thiaspi arvense): 70% |
| CC(C)N(C)S(=O)(=O)NC(=O)c1cc(-n2c(=O)cc(C(F)(F)F)n(C)c2=O)c(F)cc1Cl (single isomer, unassigned) [Form II, 2-chloro-5-[3,6-dihydro-3-methyl-2,6-dioxo-4-(trifluoromethyl)-1-(2H)-pyrimidinyl]-4-fluoro-N-[[methyl(1-methylethyl)amino]sulfonyl]benzamide] | 10 | 20 | 0 | 0 | 70 | 100 | 100 | 100 | 80 | 100 | 85 | 100 | 100 | 100 | 15 | 100 | 100 | 100 | 5 | 10 | Damage [%] (Secale cereale; 20 g/ha a.s.): 15%; Damage [%] (Galium aparine): 100%; Damage [%] (Capsella bursa-pastoris): 100%; Damage [%] (Veronica persicaria): 80%; Damage [%] (Ambrosia elatior): 75%; Damage [%] (Glycine max; 12.5 g/ha a.s.): 10%; Damage [%] (Glycine max; 25 g/ha a.s.): 30%; Damage [%] (Papaver rhoeas): 70%; Damage [%] (Polygonum convolvulus; [2]): 100%; Damage [%] (Polygonum convolvulus; post-emergence, 20 g/ha a.s.): 100%; herbicidal activity in comparison with form I (test plants): markedly improved herbicidal activity; tolerance by the crop plant in comparison with form I (test plants): the same or better tolerance by the crop plant; Damage [%] (Helianthus annuus): 100%; Damage [%] (Lamium purpureum): 90%; Damage [%] (Thlaspi arvense): 98%; Damage [%] (Viola arvensis): 90%; Damage [%] (Thiaspi arvense): 100% |
